Data as given in BindingDB's records for 22227210 (Slovak Academy of Sciences, 2012).

Chains of the proteins cited; added tags and fusions are not shown. Residues count along the entry.
UniProt A6YCJ1, 23-292 limits assumed: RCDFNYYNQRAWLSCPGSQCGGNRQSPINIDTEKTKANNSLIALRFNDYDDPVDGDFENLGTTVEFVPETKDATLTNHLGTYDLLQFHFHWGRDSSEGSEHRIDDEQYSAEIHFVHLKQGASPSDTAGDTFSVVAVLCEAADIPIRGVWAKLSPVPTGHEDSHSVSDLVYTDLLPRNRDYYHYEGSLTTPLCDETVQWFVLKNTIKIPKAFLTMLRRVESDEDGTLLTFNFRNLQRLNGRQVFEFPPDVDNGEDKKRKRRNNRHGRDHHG

Target: Carbonic anhydrase (Astrosclera willeyana, UniProt A6YCJ1)
Assay: Inhibition of Astrosclera willeyana recombinant GST-tagged astrosclerin 3 expressed in Escherichia coli BL21-DE3-RIPL cells preincubated for 15 mins measured for 10 to 100 secs by stopped flow CO2 hydration assay

**Q.** With [O]=[V]([OH])([OH])[O][V](=[O])([OH])[OH] as the compound, how does the Ki read?
**A.** The Ki was 640 µM.
